# Antibody variant affinities, Ab-14 heavy chain, assay 1

All variants were tested on one target, the spike HR2 peptide PDVDLGDISGINAS (SARS-CoV-2).

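The parent was found by panning a naive human phage display library on the peptide. AAYL49 was designed without a model: most single CDR substitutions and a random sample of double and triple ones. The assay is AlphaSeq: two haploid yeast populations carry antibody and antigen on their surface. After mating in shaken culture at 30 °C for 16 h, diploids were selected and their barcode pairs sequenced. The ratio of observed to expected reads was calibrated, replicate by replicate, on BCL2-family standards whose Kd was known from biolayer interferometry. Each pool was mated in three replicate cultures.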

The variants keep the light chain, the linker and the frameworks of Ab-14 (scFv order VH, the linker GGGGSGGGGSGGGGS, VL).
VH: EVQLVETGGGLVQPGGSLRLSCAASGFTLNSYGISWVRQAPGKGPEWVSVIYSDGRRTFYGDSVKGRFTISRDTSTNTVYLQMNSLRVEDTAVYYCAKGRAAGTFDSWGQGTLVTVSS
VL: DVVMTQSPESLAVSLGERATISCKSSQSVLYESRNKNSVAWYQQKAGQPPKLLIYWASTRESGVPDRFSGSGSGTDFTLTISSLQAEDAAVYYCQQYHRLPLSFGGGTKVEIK

Each variant is given by its three heavy chain CDRs, as the data file delimits them; those of the parent are GFTLNSYGIS, VIYSDGRRTFYGDSVK, GRAAGTFDS. The read-out is the apparent dissociation constant on a log10 scale (nM): the lower, the stronger. The mean shown is taken over the replicates in which the pair was detected. "ND" means that the variant was in the library but no mating with the target was seen in that replicate; the authors take this as a sign of poor binding, and no number exists. Nonspecific signal, from three strains lacking the peptide, appeared in 15% of pairings of library AAYL49, centred on 4.06 (5% of these signals below 2.83); values are not corrected for it. The control count says in how many pairings with the empty strains this scFv gave a signal.

With GGTLNSYGIS | VIYSDGRRTFYGESVK | GRAAGAFDS the result was ND, ND, ND (controls 0 of 9).
With GFTLNSYCIS | VIYSDGRRTFYYDSVA | GRAAGTFDS the result was ND, ND, ND (controls 3 of 9).
With GFRLNSYGIS | VIYSDGRRTHYGQSVK | GRAAGTFDS the result was ND, 2.76, 3.56 (mean 3.16; controls 0 of 9).
With GFTLNSYGIS | VIYSDGRRTQYGDPVK | QRAAGTFDS the result was 3.36, ND, ND (controls 1 of 9).
With GFTLNSAGIS | VIYSDGRRTFYGDGVK | GREAGTFDS the result was 1.15, 1.17, 1.95 (mean 1.42; controls 0 of 9).
With GFTLNSYGIS | VIYSNWRRTFYGDSVK | GRAAGTFDS the result was ND, ND, ND (controls 0 of 9).
With GFTLNNYGIS | VIYSDGRRTNYGDSVK | CRAAGTFDS the result was ND, ND, ND (controls 0 of 9).
With GFTLNSYGIS | VIYSDGRTTFYGDSVK | GRAAGLFDC the result was ND, ND, ND (controls 0 of 9).
With GFTLNSYFYS | VIYSDCRRTFYGDSVK | GRAAGTFDS the result was ND, ND, ND (controls 0 of 9).
With GFFLNSYGIS | VWYSDGRRTFYGDSVK | RRAAGTFDS the result was ND, ND, ND (controls 0 of 9).
With GFTLNSYGIS | VIYSNGRRTFYWDSVK | RRAAGTFDS the result was ND, 4.78, ND (controls 4 of 9).
With GFTLNSYGIS | VSYSDGRRTFYGDSVK | GRAAGTGGS the result was ND, ND, 2.81 (controls 0 of 9).
With HFQLNSGGIS | VIYSDGRRTFYGDSVK | GRAAGTFDS the result was ND, 3.51, ND (controls 1 of 9).
With GFTLNSYGIS | VIYSDGESTFYGDSVK | GRAARTFDS the result was ND, ND, ND (controls 0 of 9).
With GFTFNSYGES | VIYSDGRRTFYGDSVK | GRAWGTFDS the result was ND, ND, ND (controls 0 of 9).
With GFTLNSYGIS | VIYSDTRRTFYHDSVK | GRAAGTFDP the result was 4.45, ND, ND (controls 2 of 9).
With GFTLNSYGIS | VIPCDGRRTFYGDSVK | GRSAGTFDS the result was ND, ND, ND (controls 2 of 9).
With GFTLNSYGIC | VIYSDGRRTFYGDSVK | GTLAGTFDS the result was 3.95, 4.55, 4.48 (mean 4.33; controls 7 of 9).
With GFTLNSYGIS | VIYSDGRVTMYGDSVK | GRAAGTFDS the result was ND, ND, ND (controls 0 of 9).
With GNTLNSYGIS | TIYSDGRRTFYGDSVK | GRAAGTYDS the result was ND, ND, ND (controls 2 of 9).
With GFTCNSYGNS | VIYSDGRRTFYGDSVK | GRAAGTFDS the result was ND, ND, 4.10 (controls 0 of 9).
With SFTLNSYGIS | VIYSDGHRFFYGDSVK | GRAAGTFDS the result was ND, ND, ND (controls 0 of 9).
With GFTLNSYGIS | VIYSDLRRTFYGDSVK | GRAAGTFDS the result was 4.71, 4.55, 5.38 (mean 4.88; controls 5 of 9).
With GFHLNSYGIS | VIYLDGRRTFSGDSVK | GRAAGTFDS the result was ND, ND, ND (controls 0 of 9).
With GFTLNSYGIS | VGYSDGRRTFYGDSVK | GRWGGTFDS the result was 4.09, ND, ND (controls 2 of 9).
With GFTLNSYGIS | VIYSDGRRTWYGDSVK | GLAAYTFDS the result was ND, ND, ND (controls 1 of 9).
With GFTLNSYGIS | VIYSDGRRWFDGDSDK | GRAAGTFDS the result was ND, 4.85, 3.70 (mean 4.27; controls 0 of 9).
With GFTLNSYGAS | VIYSDGRRTFYGDSVK | GRSAGNFDS the result was ND, ND, ND (controls 0 of 9).
With GFTLNSYGIS | VIQSDWRRTFYGDSVK | GRAAGTFGS the result was ND, 2.84, ND (controls 0 of 9).
With GFGLNSYGIS | VIYSDGTRTFYGDSVK | GRAACTFDS the result was 3.99, ND, ND (controls 1 of 9).
With GFTLNSYVIS | VIYSDGRRTFYGDSPK | GREAGTFDS the result was ND, ND, ND (controls 1 of 9).
With GFTLNSYGII | VIYSDGRLTFYGQSVK | GRAAGTFDS the result was ND, ND, ND (controls 2 of 9).
With GFTKNSYGIS | VIYSDGRWTFYGDSVK | GRAAGTFDS the result was 5.07, ND, 3.96 (mean 4.52; controls 3 of 9).
With GFTLNSYGIR | VIYSDGRRTFYGWSVK | GRFAGTFDS the result was ND, ND, ND (controls 0 of 9).
With GFTLHSYGIS | VIYSDGRRTQYGSSVK | GRAAGTFDS the result was ND, ND, ND (controls 1 of 9).
With GFTLNSYGYS | VIYTDGRRTFYNDSVK | GRAAGTFDS the result was ND, ND, ND (controls 0 of 9).
With GFTLNSYQIS | VIYSDGRRTFYGDNVK | GRAAGTFDY the result was ND, 4.43, ND (controls 0 of 9).
With GFTLNSYGIS | VIYSDGRRTFIGDSQK | GRAAGTFDS the result was ND, ND, ND (controls 0 of 9).
With GFTLNSEGIS | VIYSDGRRGFYGDSVK | GRAAGTFDS the result was ND, ND, ND (controls 2 of 9).
With GFTLNGYGIS | VIYSDGRRTFYGDSNK | GRAAGTADS the result was 3.17, 2.88, 4.96 (mean 3.67; controls 3 of 9).
With GFTLNSYGIA | VIYSDGRRTFYGDKVK | GRAAGTFDS the result was ND, ND, ND (controls 2 of 9).
With SFTLNSYGIS | VIYSDGRNTFYGDSVK | VRAAGTFDS the result was ND, 4.39, ND (controls 4 of 9).

Picked from the list: the 3 lowest averages where every replicate gave a value.

Variant GFTLNSAGIS | VIYSDGRRTFYGDGVK | GREAGTFDS showed 1.15, 1.17, 1.95 (mean 1.42; controls 0 of 9).
Variant GFTLNGYGIS | VIYSDGRRTFYGDSNK | GRAAGTADS showed 3.17, 2.88, 4.96 (mean 3.67; controls 3 of 9).
Variant GFTLNSYGIC | VIYSDGRRTFYGDSVK | GTLAGTFDS showed 3.95, 4.55, 4.48 (mean 4.33; controls 7 of 9).

In this assay the parent's reference entry averaged 0.65; its copy inside this library read 4.11 (one replicate of three).

From the AlphaSeq antibody data of Engelhart et al. 2022 (doi:10.1038/s41597-022-01779-4), copy in the FLAb collection.